GIV Gai3 FP – GIV-Galpha-i interaction inhibition. AID 1224905. actives 0.42% (n = 210,000). percent of control (FP), % (test concentration not listed). Galpha-i3/FITC-GIV peptide fluorescence polarization, 90 min; stronger effect = lower value; scaled: aluminum fluoride 0%, vehicle 100%;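 active = replicate mean at 85% of control or lower, very high polarization wells dropped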;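 also: wells of about 15 µL received 100 nL stock; the first replicate is given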
HCMV UL50-53 inh – disrupts HCMV UL50-UL53 complex binding; AID 1918969; hit rate 0.15% among 190,000; inhibition, % (concentration not given with the values); HTRF UL50-UL53 interaction, normalized percent inhibition; in the data active = inhibition above about 27%, passing the limit was not always enough
GIV-Gai FP conf – confirmation of inhibitors of GIV binding to rat Galpha-i3. shares compounds with GIV Gai3 FP. FITC-GIV peptide binding to Galphai3, fluorescence polarization; hits give low values. fluorescence polarization, mP at 100 µM. hit rate 38% among 580. AID 1259350;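 active = inhibition score of 15 or more, meaning 100 minus mean polarization as percent of control over three replicates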;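 note: lower mP means peptide displaced from Galphai3 so more inhibition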
GIV Gai AS conf – GIV-Galpha-i3 inhibition, AlphaScreen confirmation | AlphaScreen counts at 100 µM | hit rate 39% among 580 | AID 1259351 | AlphaScreen Galphai3-GIV binding, purified proteins, 90 min; hits give low values | shares compounds with GIV Gai3 FP;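 active = inhibition score at or above a set limit, where the score is 100 minus the three-replicate mean percent of control signal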
Of the large screens only hits and unclear results are named; the others gave an inactive call (follow-up assays come after a bar, where they were run). A selection: hits, their analogues and other compounds. The true share with any hit is near 0.46%.

CCN(CC)CCCC(C)Nc1c2ccc(Cl)cc2nc2ccc(OC)cc12 (stereo unspecified)	GIV Gai3 FP 44 | GIV-Gai FP conf 41 | GIV Gai AS conf inactive
Cc1noc(C)c1CSc1ncccc1C(=O)Nc1sc2c(c1C#N)CCC(C)C2 (stereo unspecified)	none (no result: GIV Gai3 FP)
CCc1ccc(C(=O)NC(Cc2c[nH]c3ccccc23)C(=O)OCC(=O)c2ccccc2)cc1 (stereo unspecified)	GIV Gai3 FP 85 (no result: HCMV UL50-53 inh) | GIV-Gai FP conf inactive | GIV Gai AS conf inactive
CCc1ccc(C(=O)NC(Cc2c[nH]c3ccccc23)C(=O)OCC(=O)c2ccc(OC)cc2)cc1 (stereo unspecified)	none (no result: HCMV UL50-53 inh)
O=C(Cc1ccccc1)NNc1cccc(Cl)c1	none
CC(=O)Nc1ccc(C2=N/C(=C/c3cc(Br)cs3)C(=O)O2)cc1	none | GIV-Gai FP conf inactive | GIV Gai AS conf inactive
O=C1OC(c2ccc(Cl)c([N+](=O)[O-])c2)=N/C1=C\c1cc(Br)cs1	none (no result: HCMV UL50-53 inh)
COc1cc(-c2nc3cc(OC(C)=O)ccc3c(=O)o2)cc(OC)c1OC	none
O=C(CCN(CCCN1CCOCC1)C(=O)c1cccc(F)c1)N1CCNCC1	none
COc1ccccc1-c1nc2c3ccccc3ncn2n1	none
COc1cccc(-c2nc3c4ccccc4ncn3n2)c1	GIV Gai3 FP 78 | GIV-Gai FP conf inactive | GIV Gai AS conf inactive
COCCOC(=O)c1c(C)oc2ccc(OCc3cccc(Br)c3)cc12	none
CC(C)NC(=O)c1sc(N2CCCC2)nc1N	none
Nc1ccc2nsnc2c1	GIV Gai3 FP 46, HCMV UL50-53 inh 96 | GIV-Gai FP conf 5.4 | GIV Gai AS conf 3926
Nc1nnc(-c2ccc3nsnc3c2)o1	none
O=C(O)CNC(=O)c1sc2ccccc2c1Cl	none
O=C(CSc1nnc(C2CCCCC2)o1)NN1C(=O)NC2(CCCCC2)C1=O	none (no result: GIV Gai3 FP)
CS(=O)(=O)Nc1nc2n(n1)C(c1ccccc1)C=C(c1ccccc1)N2 (stereo unspecified)	GIV Gai3 FP 53 (no result: HCMV UL50-53 inh) | GIV-Gai FP conf 44 | GIV Gai AS conf inactive
Cc1ccc(C2C=C(c3ccccc3)Nc3nc(NS(=O)(=O)c4ccc(C)cc4)nn32)cc1 (stereo unspecified)	none (no result: HCMV UL50-53 inh)
O=C(NCCn1ccc2ccccc21)c1ccc(F)cc1	GIV Gai3 FP 60 (no result: HCMV UL50-53 inh) | GIV-Gai FP conf inactive | GIV Gai AS conf inactive
Cc1ccc(C(=O)NCCn2ccc3ccccc32)cc1	none (no result: HCMV UL50-53 inh)
COc1ccc([C@@H]2[C@@H](C(C)=O)N3c4ccccc4C=C[C@@H]3C2(C#N)C#N)cc1	none (no result: HCMV UL50-53 inh)
Cn1c(-c2ccccc2)c(C(=O)CNCc2ccco2)c2ccccc21	none (no result: GIV Gai3 FP)
Cc1cc(C)nc(-n2nc(C)c3c2NC(=O)CC3c2ccc3c(c2)OCO3)n1 (stereo unspecified)	none
Cc1nc(N=Nc2cc(S(=O)(=O)O)c3cc([N+](=O)[O-])cc(S(=O)(=O)O)c3c2)c(COP(=O)(O)O)c(C=O)c1O	GIV Gai3 FP 17 | GIV-Gai FP conf 53 | GIV Gai AS conf 3265
CCn1c(C)c(CN2CCC(C(=O)N3CCCC3)CC2)c2ccccc21	none (no result: HCMV UL50-53 inh)
CCn1c2c(c3ccccc31)CN(C(=O)C1CCC1)CC2	GIV Gai3 FP 51 (no result: HCMV UL50-53 inh) | GIV-Gai FP conf 20 | GIV Gai AS conf 14471
O=C(NC1CCCCC1)c1sc(=S)n2c1[nH]c(=O)c1ccccc12	none
O=C(NCCc1ccccc1)c1sc(=S)n2c1[nH]c(=O)c1ccccc12	none (no result: HCMV UL50-53 inh) | GIV-Gai FP conf inactive | GIV Gai AS conf 13551
O=C(c1ccc(Br)cc1)N1CCN(c2cc(=O)n3nc(-c4ccccc4)sc3n2)CC1	none
Cc1cc(N2CCOCC2)n2nc(C)c(-c3ccc(F)cc3)c2n1	none
Cc1cc(N2CCOCC2)n2nc(C(F)(F)F)c(-c3ccc(Cl)cc3)c2n1	none | GIV-Gai FP conf inactive | GIV Gai AS conf inactive
Cc1ccc(-c2c(C(F)(F)F)nn3c(-n4nc(C)cc4C)cc(C)nc23)cc1	none | GIV-Gai FP conf inactive | GIV Gai AS conf inactive
Cc1ccc(-c2c(C(F)(F)F)nn3c(N4CCN(C)CC4)cc(C)nc23)cc1	none
CCCC1(CCC)NC(=S)N(c2ccc(C)cc2)N1	none (no result: HCMV UL50-53 inh)
Cc1cc(C)n(-c2ccc(SCc3ccc(Cl)cc3)nn2)n1	none
CCOc1ccc(C(=O)Nc2ccc(-c3nc4ccccc4o3)cc2)cc1Br	GIV Gai3 FP 69 | GIV-Gai FP conf inactive | GIV Gai AS conf inactive
CCOc1ccc(C(=O)Nc2ccc3oc(-c4ccncc4)nc3c2)cc1Br	none (no result: HCMV UL50-53 inh)
CCSC1=N/C(=C\c2cc(Br)c(OC(C)=O)c(OC)c2)C(=O)S1	none (no result: HCMV UL50-53 inh)
CCOc1ccc(CN2CCCC2c2c(C)noc2CC)cc1OC (stereo unspecified)	none (no result: HCMV UL50-53 inh)
CN(C)c1ccc(C(CNS(C)(=O)=O)N(C)C)cc1 (stereo unspecified)	none
CC1=CC(=C2C(=O)N(c3ccccc3)N=C2C)C=C(C)N1Cc1ccco1	none (no result: GIV Gai3 FP)
CC1=CC(=C2C(=O)NC(=S)NC2=O)C=C(C)N1Cc1ccco1	GIV Gai3 FP 73 | GIV-Gai FP conf 48 | GIV Gai AS conf 2400
O=c1c(S(=O)(=O)c2cccc(F)c2)c[nH]c2c(F)c(Cl)ccc12	none
O=C(N/N=C1\CC(=O)c2ccccc21)c1ccc(CSc2nc3ccccc3o2)cc1	none (no result: GIV Gai3 FP)
COc1cc(/C=C2/C(=O)N(c3ccccc3)N=C2C)ccc1OS(=O)(=O)c1ccccc1	GIV Gai3 FP 81, HCMV UL50-53 inh 42 | GIV-Gai FP conf 60 | GIV Gai AS conf 21149
COc1cc(/C=C2\C(=O)N(c3ccc(S(N)(=O)=O)cc3)N=C2C)ccc1OCc1ccccc1	none (no result: HCMV UL50-53 inh)
C/C(N)=C(/C#N)C(=O)Cn1cc(S(=O)(=O)N2CCCC2)ccc1=O	none (no result: GIV Gai3 FP)
O=C1C=CC(=O)C(c2ccc(C(=O)O)cc2)=C1	GIV Gai3 FP 70 | GIV-Gai FP conf 55 | GIV Gai AS conf 2443
CC(C)c1ccc(C2=CC(=O)C=CC2=O)cc1	none
O=c1[nH]cnc2c1nnn2Cc1ccc(F)cc1	none (no result: GIV Gai3 FP)
CCOC(=O)C1CCN(S(=O)(=O)c2ccc3c(c2)CCO3)CC1	none
COc1ccc(OC)c(C2C(C(=O)Nc3nc4ccc(Br)cc4s3)=C(C)NC3=C2C(=O)CC(C)(C)C3)c1 (stereo unspecified)	none | GIV-Gai FP conf inactive | GIV Gai AS conf inactive
COc1ccc(OC)c(C2C(C(=O)Nc3nc4ccccc4s3)=C(C)NC3=C2C(=O)CC(C)(C)C3)c1 (stereo unspecified)	none
CCCc1cc(C2CCCN2S(=O)(=O)c2ccc3c(c2)n(C)c(=O)c(=O)n3C)no1 (stereo unspecified)	none (no result: HCMV UL50-53 inh)
CCOc1ccccc1CNC(=O)c1cc2cc(S(=O)(=O)N3CCCCC3)ccc2n1C	none (no result: HCMV UL50-53 inh)
Cn1c(C(=O)NCc2ccccc2F)cc2cc(S(=O)(=O)N3CCCCC3)ccc21	none (no result: HCMV UL50-53 inh) | GIV-Gai FP conf inactive | GIV Gai AS conf inactive
Cc1cccc(-c2nn3c(=O)cc(N4CCN(C(=O)Nc5ccc6c(c5)OCO6)CC4)nc3s2)c1	none
Cc1ccccc1-c1nn2c(=O)cc(N3CCN(C(=O)Nc4cccc(F)c4)CC3)nc2s1	none | GIV-Gai FP conf inactive | GIV Gai AS conf inactive
Cc1ccccc1-c1nn2c(=O)cc(N3CCN(C(=O)Nc4ccccc4)CC3)nc2s1	none
Cc1cccc(NC(=O)N2CCN(c3cc(=O)n4nc(-c5cccc(C)c5)sc4n3)CC2)c1	none | GIV-Gai FP conf inactive | GIV Gai AS conf inactive
CCn1cc(CNC(=S)NC2CCCC2)cn1	none
O=C(Cn1[nH]c(=O)c2ccccc2c1=O)N1CCc2ccccc2C1	none (no result: GIV Gai3 FP)
